Literature values in PMC5845537 (Frontiers in Pharmacology, 2018).

System: SERT
Conditions: ref Pehrson et al., 2015; cited from earlier work

## Fc1ccc([C@@H]2CCNC[C@H]2COc2ccc3c(c2)OCO3)cc1 [paroxetine]
  SERT occupancy ED80: ~0.2 mg/kg
